Amino acid sequences for entries named in this document (tags omitted). A change or cut given only in a name is not applied to a line headed by its entry.
UniProt O69054: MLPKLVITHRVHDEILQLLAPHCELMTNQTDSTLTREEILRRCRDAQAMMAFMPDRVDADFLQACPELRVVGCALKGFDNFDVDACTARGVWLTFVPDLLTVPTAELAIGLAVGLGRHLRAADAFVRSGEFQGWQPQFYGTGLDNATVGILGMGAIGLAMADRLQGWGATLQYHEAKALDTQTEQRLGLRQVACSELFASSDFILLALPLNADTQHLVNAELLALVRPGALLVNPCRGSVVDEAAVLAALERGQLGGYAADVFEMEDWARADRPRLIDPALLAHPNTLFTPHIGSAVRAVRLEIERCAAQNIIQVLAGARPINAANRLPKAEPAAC

In US20040091985A1, “NAD phosphite oxidoreductase, a novel catalyst from bacteria for regeneration of NAD(P)H” (priority 2002, published 2004):

Molecular target: PtxD (Stutzerimonas stutzeri, UniProt O69054)
Assay: Inhibition of PtxD activity by cofactor analogs and substrate analogs
Type: biochemical, Pseudomonas stutzeri WM88
Details: see Table 2

Substance	inhibitory activity on PtxD, in words
D-2-Hydroxy-4-methylvalerate	moderately inhibited
Formate	moderately inhibited
